Only a part of the results on these compounds is given; other tests are left out.
Test system: microglia-neuron co-cultures
Test: Neuron survival in co-cultures treated with the NO donor SNP
Settings: SNP 300 μM, 48 hr

sodium nitroprusside
neurons killed: less than 50%

— patent US20030152646A1, “Method of treating conditions caused by activated microglia” (priority 2001, published 2003)
